From PMC10683372 (Protein Science : A Publication of the Protein Society, 2023) come the findings set out here.

Experiment [1] has as its target α‐thrombin (αT) (Homo sapiens, UniProt P00734). As to the kind of experiment: Tight-binding inhibition of αT amidolytic activity on chromogenic substrate S2238. To be noted: 25 ± 0.1°C, TBS; αT 250 pM incubated with peptide, S2238 50 μM; tight‐binding model (Eq. 3, 4); average of three independent measurements ± SD. The format is biochemical.
Experiment [2] addresses S195A‐hirudin complex (exosite II available) (Homo sapiens, UniProt P00734, S568A). As to the kind of experiment: Direct fluorescence binding of [F]‐Haem(45–57) to preformed S195A‐hirudin complex.
The target in experiment [3] is αT S195A (Homo sapiens, UniProt P00734, S568A). As to the kind of experiment: Direct fluorescence binding of [F]‐Haem(45–57) to isolated αT S195A. The settings on record: [F]‐Haem(45–57) 60 nM titrated with free αT S195A; exc. 492 nm, em. 516 nm; Eq. 1; average of three.

Structures are written as SMILES. Some results are limits rather than exact numbers.

By Ki is commonly meant a dissociation constant, usually derived from enzyme kinetics or from competition with a known ligand. The low end stands for a stronger hold on the target, the high end for a looser hold on the target. Consider `CC[C@H](C)[C@H](N)C(=O)N[C@@H](CCCNC(=N)N)C(=O)N[C@@H](Cc1ccccc1)C(=O)NCC(=O)N[C@@H](CCSC)C(=O)NCC(=O)N[C@@H](CCCCN)C(=O)N[C@H](C(=O)N1CCC[C@H]1C(=O)NCC(=O)O)C(C)C`, for which, in experiment [1], the inhibition constant (Ki) is 1.9 µM.

Broadly, the Kd is a measure of binding affinity in units of concentration. A higher Kd goes with a looser complex. `CC[C@H](C)[C@H](NC(=O)[C@H](CCC(=O)O)NC(=O)[C@H](Cc1ccccc1)NC(=O)[C@H](CCC(=O)O)NC(=O)[C@H](CCC(=O)O)NC(=O)[C@H](Cc1ccccc1)NC(=O)[C@H](CCC(=O)O)NC(=O)[C@H](CO)NC(=O)c1ccc2c(c1)C(=O)OC21c2ccc(O)cc2Oc2cc(O)ccc21)C(=O)N[C@@H](CC(=O)O)C(=O)N[C@@H](CCC(=O)O)C(=O)N[C@@H](CCC(=O)O)C(=O)N[C@@H](CCC(=O)O)C(=O)N[C@@H](CCCCN)C(=O)O`: the “fold lower affinity for αT‐hirudin complex (exosite II) than for free αT (exosite I)” value in experiment [2] is on record as over 35 fold. Also, the Kd was 12.8 µM in experiment [2] ([F]‐Haem(45–57) 60 nM titrated with S195A‐hirudin complex (active site and exosite I blocked), Eq. 1, average of three); 0.35 µM in experiment [3].
